Measurements as given in US8835644B2, “Broad spectrum benzothiophene-nitrothiazolide and other antimicrobials” (University of Virginia Patent Foundation, priority 2009, dated 2014).

How the values were obtained:
[1] = system: C. difficile; assay: Disk diffusion (Kirby Bower), C. difficile; format: cell-based, Clostridium difficile; settings: Nitazoxanide = 100; Thiophene analogues table
Description: (§1) A standard broth dilution protocol was used in 96 well microplates containing a standard dilution of the microorganism to be tested in 100 microliters of the appropriate medium. Appropriate medium: E. coli, LB medium; Staphylococcus strains, Trypticase Soy; and for H. pylori and C. jejuni, Brain Heart Infusion. The compounds to be tested were set at 32 μg/ml in 200 microliters in well one and then serially diluted to provide a range from 32 to 0.06. The wells were scored visually at 24 h. The well where there was no growth was recorded as the MIC. Clostridium difficile was tested by agar diffusion and disk diffusion (Kirby Bower) methods under anaerobic conditions on Wilkins Chalgrin agar. In these assays, zone of inhibited growth was measured and compared by relative ratio to the zone recorded for NTZ.
(§2) Representative compounds of the invention were tested in a series of assays against a series of organisms as described above. […] The organisms tested include, C. difficile, H. pylori, C. jejuni, MRSA, S. epidermidis, and E. coli. S. epidermidis and E. coli were tested in the plank and biofilm assay. A disk diffusion assay was also used for C. difficile. Direct PFOR enzyme assays were also performed. All analogues and derivatives were not tested on every organism in every type of assay (the “-” in each table means that it was not tested).

[2] = system: E. coli; assay: MIC testing by broth dilution, E. coli plank; format: cell-based; settings: Escherichia coli, read-out: MIC E. coli Plank
Description: as §1, §2

[3] = system: H. pylori; assay: MIC testing by broth dilution, H. pylori; format: cell-based; settings: Helicobacter pylori, read-out: MIC H. pylori
Description: as §1, §2

[4] = system: MRSA; assay: MIC testing by broth dilution, MRSA; format: cell-based; settings: Staphylococcus aureus, read-out: MIC MRSA
Description: as §1, §2

[5] = system: C. difficile; assay: MIC by agar dilution, C. difficile; format: cell-based, Clostridium difficile; settings: Clostridioides difficile, read-out: MIC C. difficile
Description: as §1, with “Clostridium difficile was tested by agar diffusion and disk diffusion (Kirby Bower) methods under anaerobic conditions on Wilkins Chalgrin agar. In these assays, zone of inhibited growth was measured and compared by relative ratio to the zone recorded for NTZ.” left out
as §2

[6] = system: S. epidermidis; assay: MIC testing by broth dilution, S. epidermidis plank; format: cell-based; settings: Staphylococcus epidermidis, read-out: MIC S. epidermidis Plank
Description: as §1, §2

[7] = system: E. coli biofilm; assay: E. coli biofilm assay (activity tables); format: cell-based; settings: Escherichia coli, read-out: MIC E. coli Biofilm
Description: A quantitative biofilm assay was used to determine the effect of NTZ on biofilm formation (41). Strain 042 was grown overnight at 37° C. with shaking and inoculated 1:100 in 200 μl culture medium in Costar 96-well, flat-bottom, polystyrene microtiter plates containing appropriate concentrations of NTZ. Plates were incubated statically at 37° C. in a humidified incubator. At 24 h, bacterial growth was measured by either transferring […] aliquots to another microtiter plate to determine turbidity or by diluting 100 μl aliquots 1:100 in 9.9 ml PBS for quantitative plate counts on LB medium. Bacterial counts in triplicate are reported as cfu/ml. Biofilm was visualized following staining with 0.5% crystal violet (41) and the absorbance was read at 570 nm using a microplate reader (Molecular Dynamics). All experiments were in triplicate and reported as mean and standard deviation.
A standard broth dilution protocol was used in 96 well microplates containing a standard dilution of the microorganism to be tested in 100 microliters of the appropriate medium. […] The wells were scored visually at 24 h. The well where there was no growth was recorded as the MIC. […] In these assays, zone of inhibited growth was measured and compared by relative ratio to the zone recorded for NTZ. […]

[8] = system: PFOR (pyruvate ferredoxin oxidoreductase); assay: Direct PFOR enzyme assay; format: biochemical; settings: Thiophene analogues table
Description: as §2

## O=C(Nc1ncc([N+](=O)[O-])s1)c1ccc(Cl)s1 [VPC16a1011, 5-Chloro-N-(5-nitrothiazol-2-yl)thiophene-2-carboxamide]
[1]
  Disk Diff (%) C. difficile: 89%
[2]
  MIC: 110 µM (≈ 32 µg/mL)
[3]
  MIC: 5.2 µM (≈ 1.51 µg/mL)
[4]
  MIC: 10.4 µM (≈ 3.01 µg/mL)
[5]
  MIC: 6.9 µM (≈ 2 µg/mL)
[6]
  MIC: 27.6 µM (≈ 8 µg/mL)
[7]
  MIC: 0.9 µM (≈ 0.261 µg/mL)
[8]
  PFOR inhibition relative to nitazoxanide (=100): 65%

Values after ≈ are worked out from the molar mass of the structure shown.
